{
  "sequences": {"note": "By UniProt entry, the sequences of proteins in these tests, tags left out. Residues count along the entry.", "UniProt P14756, 198-498": "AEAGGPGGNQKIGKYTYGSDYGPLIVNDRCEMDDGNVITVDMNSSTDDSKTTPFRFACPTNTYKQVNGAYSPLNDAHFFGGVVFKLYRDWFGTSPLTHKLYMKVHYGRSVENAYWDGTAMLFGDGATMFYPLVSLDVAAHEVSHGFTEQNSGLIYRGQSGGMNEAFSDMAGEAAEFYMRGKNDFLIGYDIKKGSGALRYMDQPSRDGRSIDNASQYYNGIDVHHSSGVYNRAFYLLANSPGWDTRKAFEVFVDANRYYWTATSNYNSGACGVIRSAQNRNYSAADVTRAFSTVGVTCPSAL"},
  "source": "paper PMC3618488",
  "about": "(Chemical communications (Cambridge, England), 2013)",
  "molecular_target": "Pseudomonas aeruginosa elastase (LasB) (Pseudomonas aeruginosa, UniProt P14756)",
  "format": "biochemical",
  "conditions": "read-out: IC50 for LasB inhibition",
  "data": [
    {"substance": "acetyltropolone [compound 4]", "values": [
      {"measurement": "IC50", "result": "1290 ± 240", "unit": "µM"}
    ]}
  ]
}
